{
  "sequences": {"note": "Sequences of proteins named here, by UniProt entry; tags and fusion partners are left off. Residues count along the entry.", "UniProt P15538, 25-503 limits assumed": "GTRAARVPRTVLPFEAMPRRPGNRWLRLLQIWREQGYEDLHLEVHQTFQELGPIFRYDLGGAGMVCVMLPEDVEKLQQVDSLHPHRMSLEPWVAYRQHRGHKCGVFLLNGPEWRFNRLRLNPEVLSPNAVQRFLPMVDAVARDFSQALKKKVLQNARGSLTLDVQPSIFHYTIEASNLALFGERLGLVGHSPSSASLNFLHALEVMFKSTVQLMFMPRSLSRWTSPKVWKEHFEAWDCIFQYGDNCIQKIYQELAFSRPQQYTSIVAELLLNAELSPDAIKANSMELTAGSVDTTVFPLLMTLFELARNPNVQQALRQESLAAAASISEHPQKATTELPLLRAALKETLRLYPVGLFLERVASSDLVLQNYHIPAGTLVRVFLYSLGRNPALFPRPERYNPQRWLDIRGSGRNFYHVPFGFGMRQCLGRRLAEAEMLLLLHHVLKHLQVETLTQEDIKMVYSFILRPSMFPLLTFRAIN", "UniProt P19099, 25-503 limits assumed": "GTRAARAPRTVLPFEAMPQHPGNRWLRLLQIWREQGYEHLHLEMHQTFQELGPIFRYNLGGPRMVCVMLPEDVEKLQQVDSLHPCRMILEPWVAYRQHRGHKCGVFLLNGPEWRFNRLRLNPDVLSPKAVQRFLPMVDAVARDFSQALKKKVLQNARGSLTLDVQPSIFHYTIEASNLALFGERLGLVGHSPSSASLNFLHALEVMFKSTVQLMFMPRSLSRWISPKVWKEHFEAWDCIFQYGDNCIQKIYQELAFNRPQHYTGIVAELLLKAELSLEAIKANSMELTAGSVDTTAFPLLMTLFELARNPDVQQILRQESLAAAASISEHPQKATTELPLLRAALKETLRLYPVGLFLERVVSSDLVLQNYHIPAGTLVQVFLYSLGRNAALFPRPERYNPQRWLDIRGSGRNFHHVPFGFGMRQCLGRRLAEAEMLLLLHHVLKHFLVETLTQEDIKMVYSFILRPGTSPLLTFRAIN"},
  "source": "patent US9073929B2",
  "about": "“Aldosterone synthase inhibitors” (ElexoPharm GmbH, priority 2011, dated 2015)",
  "key": {"human CYP11B1": {"target": "human CYP11B1 (Homo sapiens, UniProt P15538)", "assay": "V79-Human-CYP11B1 cell assay (cortisol HTRF)", "type": "cell-based", "conditions": "read-out: V79 Human CYP11B1 IC50, V79-hCYP11B1 cells, 250 nM 11-deoxycortisol, 3 hours", "experimental": "Methods for V79-Human-CYP11B2 and V79-Human-CYP11B1 Assays: V79 cell lines stably expressing the either the human CYP11B2 or the human CYP11B1 enzyme were generated using a standard transfection protocol. V79 cells were transfected with plasmids pTriEx3-Hygro-hCyp11B2 or pTriEx3-Hygro-hCyp11B1 using Lipofectamine2000 reagent. […] Single cell clones were generated by infinite dilution in DMEM supplemented with 10% FBS and 400 μg/mL hygromycin until single colonies were obtained. […] For testing of inhibitors, cells were harvested at 80% confluency with 0.5% Trypsan-EDTA, washed once in PBS, and reconstituted in DMEM+0.1% BSA media at a cell concentration of 400,000 cells/mL. 25 μl of cells were added to a 384 well tissue culture treated plate and mixed with 0.25 μl of inhibitor or DMSO (1% final DMSO concentration) for 1 hour at 37° C., 5% CO2. […] The reaction was carried out for 3 hours at 37° C., 5% CO2 and was stopped by harvesting the supernatants. […] IC50's for the inhibitor were determined by plotting the amount of product formed against the concentration of inhibitor using sigmoidal dose-response curve (variable slope) fit in GraphPad."}, "human CYP11B2": {"target": "human CYP11B2 (Homo sapiens, UniProt P19099)", "assay": "V79-Human-CYP11B2 cell assay (aldosterone HTRF)", "conditions": "read-out: V79 Human CYP11B2 IC50, V79-hCYP11B2 cells, 125 nM 11-deoxycorticosterone, 3 hours"}},
  "data": [
    {"compound": "COC(C)(C)c1cncc(-c2ccc3c(c2)CCc2nncn2-3)c1", "values": [
      {"measurement": "IC50", "setting": "human CYP11B1", "result": 0.108, "unit": "µM"},
      {"measurement": "IC50", "setting": "human CYP11B2", "result": 0.005, "unit": "µM"}
    ]}
  ]
}
